Measured values from ChEMBL document CHEMBL2417365, “Design, synthesis, and in vitro hMAO-B inhibitory evaluation of some 1-methyl-3,5-diphenyl-4,5-dihydro-1H-pyrazoles” (Bioorg Med Chem Lett, 2013).

The chains behind the UniProt entries cited, without tags or fusion partners.
UniProt P27338, whole entry: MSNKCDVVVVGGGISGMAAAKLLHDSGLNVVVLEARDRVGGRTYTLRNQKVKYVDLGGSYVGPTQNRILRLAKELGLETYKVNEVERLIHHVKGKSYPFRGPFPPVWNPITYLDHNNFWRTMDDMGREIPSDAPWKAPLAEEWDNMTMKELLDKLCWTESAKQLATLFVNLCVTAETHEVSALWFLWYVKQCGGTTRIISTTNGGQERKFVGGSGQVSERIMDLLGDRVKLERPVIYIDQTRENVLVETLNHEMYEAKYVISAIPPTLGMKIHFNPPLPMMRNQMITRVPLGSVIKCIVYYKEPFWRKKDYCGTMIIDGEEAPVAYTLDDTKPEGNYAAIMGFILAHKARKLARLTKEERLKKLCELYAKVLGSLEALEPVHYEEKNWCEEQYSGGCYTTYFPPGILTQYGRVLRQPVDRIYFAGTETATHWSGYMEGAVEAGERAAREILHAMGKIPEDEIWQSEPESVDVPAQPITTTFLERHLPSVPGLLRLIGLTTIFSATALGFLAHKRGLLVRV

Key:
[1] = target: Amine oxidase [flavin-containing] B (Homo sapiens, UniProt P27338); experiment: biochemical; format: cell-based, BTI-TN-5B1-4
Homo sapiens = species: Homo sapiens; experiment: Selectivity index, ratio of IC50 for human MAO-A to IC50 for human MAO-B

**Q.** Which results are given for `CN1N=C(c2ccc(O)cc2O)CC1c1ccc(F)cc1` (configuration not stated)?
**A.** IC50 [1]: 490 nM; Ratio IC50 (Homo sapiens): 1.6
